# Earlier results, collected in patent publication US20120309677A1, “METHODS FOR REGULATING BLOOD GLUCOSE LEVELS” (Monash University, priority 2010, published 2012).
# Sequences of proteins named here, by UniProt entry; tags and fusion partners are left off. A change or cut given only in a name is not applied to a line headed by its entry.
# UniProt P33032: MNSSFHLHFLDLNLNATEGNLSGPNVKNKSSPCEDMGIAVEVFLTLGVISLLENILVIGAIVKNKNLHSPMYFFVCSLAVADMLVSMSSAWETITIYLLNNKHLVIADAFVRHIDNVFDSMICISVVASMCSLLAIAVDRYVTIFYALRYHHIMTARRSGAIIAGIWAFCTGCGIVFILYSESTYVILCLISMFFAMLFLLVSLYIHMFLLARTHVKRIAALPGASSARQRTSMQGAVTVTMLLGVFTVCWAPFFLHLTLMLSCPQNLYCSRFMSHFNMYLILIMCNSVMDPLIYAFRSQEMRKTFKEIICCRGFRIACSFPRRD
# Biological target: hMC5R (Homo sapiens, UniProt P33032)
# Conditions: cited from earlier work
substance,measurement,value
Ac-Nle-c[Asp-Pro-D-Nal(2′)-Arg-Trp-Lys]-NH2 [PG-901],EC50,72 pM
